## Apparent affinities of Ab-14 variants for a coronavirus HR2 peptide

Values reported by Li et al. 2023, doi:10.1038/s41467-023-39022-2 (FLAb copy).

Target peptide (SARS-CoV-2 spike, HR2 region): PDVDLGDISGINAS

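Phage display of a naive human antibody library on the peptide gave the parent. Designed CDR sequences, proposed from the first random library and measured here. Several design methods are mixed in this list. The assay is AlphaSeq: two haploid yeast populations carry antibody and antigen on their surface. The frequency of each diploid, read from paired DNA barcodes, reflects how well the two displayed proteins bind. Read counts were normalised to the haploid input and turned into Kd by a linear fit to BCL2-family pairs of known affinity, for each replicate. Each pool was mated in six replicate cultures.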

The variants keep the light chain, the linker and the frameworks of Ab-14 (scFv order VH, the linker GGGGSGGGGSGGGGS, VL).
VH: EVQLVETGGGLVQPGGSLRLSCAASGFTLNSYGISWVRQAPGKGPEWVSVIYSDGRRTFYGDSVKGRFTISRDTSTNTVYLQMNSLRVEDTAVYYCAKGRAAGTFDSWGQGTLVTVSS
VL: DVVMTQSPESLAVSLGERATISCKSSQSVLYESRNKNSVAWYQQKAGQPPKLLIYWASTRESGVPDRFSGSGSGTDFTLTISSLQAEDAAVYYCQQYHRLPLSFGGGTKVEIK

Each variant's VH is given in full.
Variants here have at most six changes.
The Kd shown is the geometric mean over detected replicates; a lower Kd is a better binder.
An entry "nd" has no value in the source: the pair was not observed among the diploids in any replicate. This suggests poor binding but is not conclusive.

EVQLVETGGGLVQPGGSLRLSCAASGFDLNMYGISWVRQAPGKGPEWVSVIYSDGRRTFYGDSVKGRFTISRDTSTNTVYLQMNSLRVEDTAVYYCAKGQAAGTFDSWGQGTLVTVSS: 2.0 nM (6 of 6 replicates).
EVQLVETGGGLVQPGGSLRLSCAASGFSLNEYGISWVRQAPGKGPEWVSVIYSDGRRTFYCDAVKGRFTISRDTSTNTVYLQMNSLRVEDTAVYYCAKGRTAGTFDSWGQGTLVTVSS: 27 nM (6 of 6 replicates).
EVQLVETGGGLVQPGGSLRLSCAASGFTLNEYGISWVRQAPGKGPEWVSVIKSDGRRTFYTDSVKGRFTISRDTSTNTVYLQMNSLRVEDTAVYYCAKGRFAGTFDAWGQGTLVTVSS: 22 nM (1 of 6 replicates).
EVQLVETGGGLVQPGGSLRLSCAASGFTLNEYGISWVRQAPGKGPEWVSVIYSDGRRTFYSDSVKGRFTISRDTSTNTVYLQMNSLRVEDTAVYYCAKGRLAGTFDRWGQGTLVTVSS: 9.3 nM (6 of 6 replicates).
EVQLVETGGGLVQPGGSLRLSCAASGFSLNNYGISWVRQAPGKGPEWVSVIYSDGRRTFYGDSVKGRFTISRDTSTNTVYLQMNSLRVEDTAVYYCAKGTAAGTFDSWGQGTLVTVSS: 2.5 nM (5 of 6 replicates).
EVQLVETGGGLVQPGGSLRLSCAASGFDLNEYGISWVRQAPGKGPEWVSVIYADGRRTFYADSVKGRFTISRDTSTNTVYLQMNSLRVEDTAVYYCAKGNTAGTFDSWGQGTLVTVSS: 200 pM (6 of 6 replicates).
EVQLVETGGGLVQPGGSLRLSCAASGFILNSYGISWVRQAPGKGPEWVSVIYSDGRRTFYGDSVKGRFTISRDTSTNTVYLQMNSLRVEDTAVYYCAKGQAAGTFDSWGQGTLVTVSS: 150 nM (6 of 6 replicates).
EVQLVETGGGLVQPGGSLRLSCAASGFQLNSYGISWVRQAPGKGPEWVSVIYSDGRRTFYGDSVKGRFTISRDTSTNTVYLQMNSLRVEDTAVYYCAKGEAAGTFDRWGQGTLVTVSS: 11 nM (1 of 6 replicates).
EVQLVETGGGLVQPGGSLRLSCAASGFDLNEYGISWVRQAPGKGPEWVSVIYADGRRTAYADSVKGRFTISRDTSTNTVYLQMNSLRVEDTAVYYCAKGNAAGTFDSWGQGTLVTVSS: 360 pM (6 of 6 replicates).
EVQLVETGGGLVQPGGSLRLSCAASGFHLNSYGISWVRQAPGKGPEWVSVIYSDGRRTFYVDSVKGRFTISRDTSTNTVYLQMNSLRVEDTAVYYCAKGKQAGTFDSWGQGTLVTVSS: nd (0 of 6 replicates).
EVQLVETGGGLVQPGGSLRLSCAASGFTLNSYGISWVRQAPGKGPEWVSVIYSDGRRTFYADNVKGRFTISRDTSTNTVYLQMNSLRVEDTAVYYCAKGNAAGTFDTWGQGTLVTVSS: nd (0 of 6 replicates).
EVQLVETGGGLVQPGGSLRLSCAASGFDLNSYGISWVRQAPGKGPEWVSVIYSDGMRTFYVDSVKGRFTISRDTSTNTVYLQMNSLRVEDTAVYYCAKGRTAGTFDSWGQGTLVTVSS: 3.2 nM (6 of 6 replicates).
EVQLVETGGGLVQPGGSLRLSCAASGFTLNEYGISWVRQAPGKGPEWVSVIYSDGRRTFYKDSVKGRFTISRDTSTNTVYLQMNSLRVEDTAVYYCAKGRMAGTFDSWGQGTLVTVSS: 1.0 nM (6 of 6 replicates).
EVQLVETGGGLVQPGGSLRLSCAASGFTLNEYGISWVRQAPGKGPEWVSVIYSDGRRTFYGDSVKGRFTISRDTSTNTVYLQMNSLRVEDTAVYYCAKGRQAVTFDIWGQGTLVTVSS: nd (0 of 6 replicates).
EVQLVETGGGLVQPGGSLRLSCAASGFELNSYGISWVRQAPGKGPEWVSVIYSDGLRTFYTDSVKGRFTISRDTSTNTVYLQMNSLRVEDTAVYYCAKGQAAGTFDSWGQGTLVTVSS: 2.8 nM (6 of 6 replicates).
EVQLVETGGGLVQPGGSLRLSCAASGFTLNSYGISWVRQAPGKGPEWVSVIYSDGMRTFYGDDVKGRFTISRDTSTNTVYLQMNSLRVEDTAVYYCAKGRTAGTFDSWGQGTLVTVSS: 50 nM (4 of 6 replicates).
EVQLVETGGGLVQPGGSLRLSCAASGFTLDSYGISWVRQAPGKGPEWVSVIYSDGRRTFYIDSVKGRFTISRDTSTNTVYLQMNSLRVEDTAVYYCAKGRAAGTFISWGQGTLVTVSS: nd (0 of 6 replicates).
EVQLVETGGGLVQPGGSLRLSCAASGFQLNSYGISWVRQAPGKGPEWVSVIYSDGRRTFYGDSVKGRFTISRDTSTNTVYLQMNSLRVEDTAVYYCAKGQTAGTFDDWGQGTLVTVSS: 12 nM (6 of 6 replicates).
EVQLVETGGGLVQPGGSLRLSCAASGFTLNSYGISWVRQAPGKGPEWVSVIYSDGRRTAYGDSVKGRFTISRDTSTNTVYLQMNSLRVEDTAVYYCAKGRAAGTFDVWGQGTLVTVSS: 4.1 nM (6 of 6 replicates).

Extract of 2 entries:

| VH | Kd | detected |
|---|---|---|
| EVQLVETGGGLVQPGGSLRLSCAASGFILNSYGISWVRQAPGKGPEWVSVIYSDGRRTFYGDSVKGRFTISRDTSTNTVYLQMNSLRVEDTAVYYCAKGQAAGTFDSWGQGTLVTVSS | 150 nM | 6 of 6 |
| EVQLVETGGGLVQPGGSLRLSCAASGFQLNSYGISWVRQAPGKGPEWVSVIYSDGRRTFYGDSVKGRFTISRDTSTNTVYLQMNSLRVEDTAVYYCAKGEAAGTFDRWGQGTLVTVSS | 11 nM | 1 of 6 |

The parent sequence was in this pool as ten entries: three were never detected, three once, and four in most replicates, with averages from 2.2 nM to 240 nM.
The authors' rule: three or more of the six replicates give a measured affinity, fewer mean a poor binder.
Values of this round are not directly comparable with the first-round values of the same sequences.
Nonspecific signal, from three strains lacking the peptide, appeared in 1% of pairings of all heavy chain designs, centred on 120 nM (5% of these signals below 7.0 nM); values are not corrected for it.